System: primary HSCs

Cc1sc2c(c1C)C(c1ccc(Cl)cc1)=N[C@@H](CC(=O)OC(C)(C)C)c1nnc(C)n1-2 [JQ1, (S)-tert-butyl 2-(4-(4-chlorophenyl)-2,3,9-trimethyl-6H-thieno[3,2-f][1,2,4]triazolo[4,3-a][1,4]diazepin-6-yl)acetate]
Ddah1 log2(fold_change): −1.8403 | Ddr1 log2(fold_change): 0.8654 | Ddr2 log2(fold_change): 0.6474 | Def6 log2(fold_change): −3.1418 | Des log2(fold_change): −3.8145 | Dhrs1 log2(fold_change): −0.4106 | Diap3 log2(fold_change): 0.7607 | Dkk2 log2(fold_change): −3.8705 | Dlg4 log2(fold_change): −0.7042 | Dlgap5 log2(fold_change): 0.6367 | Dmpk log2(fold_change): −1.738 | Dnajb4 log2(fold_change): −0.6743 | Dnpep log2(fold_change): −0.3504 | Dok5 log2(fold_change): −2.7837 | Dpep1 log2(fold_change): −4.4821 | Dpysl3 log2(fold_change): −2.1905 | Dst log2(fold_change): −0.7345 | Dynlrb1 log2(fold_change): −0.3298 | Dzip1l log2(fold_change): −0.475 | Dzip1 log2(fold_change): 2.083 | Dzip3 log2(fold_change): 0.4236 | E2f1 log2(fold_change): 0.7425 | Eda2r log2(fold_change): −0.5731 | Efemp1 log2(fold_change): 2.802 | Efemp2 log2(fold_change): −0.6136 | Egr1 log2(fold_change): 1.057 | Elfn1 log2(fold_change): −3.7851 | Eln log2(fold_change): −6.1713 | Elovl5 log2(fold_change): 0.6145 | Emilin2 log2(fold_change): 1.166 | Emp2 log2(fold_change): −2.2254 | Eno2 log2(fold_change): 0.4371 | Enpp5 log2(fold_change): −0.2509 | Epdr1 log2(fold_change): −0.5916 | Epha7 log2(fold_change): 1.242 | Ephb3 log2(fold_change): 0.6646 | Ephx1 log2(fold_change): 0.7179 | Esrp2 log2(fold_change): −3.1358 | Etv4 log2(fold_change): −2.9572 | Evc2 log2(fold_change): −0.7253 | Evc log2(fold_change): 0.5139 | Ext1 log2(fold_change): −0.3121 | Ext2 log2(fold_change): 0.4643 | Extl3 log2(fold_change): −0.5052 | F3 log2(fold_change): −3.0325 | Fah log2(fold_change): −2.1282 | Fam19a5 log2(fold_change): −1.8682 | Fam20a log2(fold_change): −0.248 | Fam38b log2(fold_change): −2.2611 | Fam110c log2(fold_change): −0.4708 | Fam114a1 log2(fold_change): −0.8465 | Fam115c log2(fold_change): −0.708 | Fam117a log2(fold_change): 1.187 | Fam123b log2(fold_change): 0.8526 | Fam132a log2(fold_change): −1.6658 | Fam132b log2(fold_change): −3.2368 | Fam149a log2(fold_change): −0.623 | Fam171b log2(fold_change): 0.4558 | Fam189b log2(fold_change): −0.5628 | Fam198b log2(fold_change): −5.0284 | Fam83d log2(fold_change): 1.503 | Fap log2(fold_change): −1.674 | Fblim1 log2(fold_change): −2.7147 | Fbln1 log2(fold_change): 1.022 | Fbln5 log2(fold_change): 1.8105 | Fbxo5 log2(fold_change): 0.7919 | Fbxw9 log2(fold_change): −0.4897 | Fgf18 log2(fold_change): −0.7031 | Fgfr2 log2(fold_change): 1.462 | Fhl1 log2(fold_change): 1.153 | Fhl2 log2(fold_change): −0.8206 | Fibin log2(fold_change): −2.7224 | Figf log2(fold_change): 1.282 | Fignl1 log2(fold_change): 0.7783 | Fkbp7 log2(fold_change): −0.4648 | Fkbp10 log2(fold_change): −3.1097 | Fkbp11 log2(fold_change): −2.6721 | Flnc log2(fold_change): −0.7255 | Fmod log2(fold_change): −2.4735 | Fndc1 log2(fold_change): −2.1821 | Fndc4 log2(fold_change): −2.1512 | Folr1 log2(fold_change): −2.4816 | Foxc2 log2(fold_change): −2.3603 | Foxf2 log2(fold_change): −2.0429 | Foxm1 log2(fold_change): 0.6308 | Frzb log2(fold_change): −0.2723 | Fscn1 log2(fold_change): 0.7798 | Fst log2(fold_change): −3.6852 | Fstl3 log2(fold_change): −2.2285 | Fxyd6 log2(fold_change): −4.077 | Fzd2 log2(fold_change): −0.7589 | Fzd6 log2(fold_change): −2.3725 | Gabra3 log2(fold_change): −0.6835 | Gamt log2(fold_change): 1.086 | Gas1 log2(fold_change): 0.6451 | Gas6 log2(fold_change): −0.8639 | Gbx2 log2(fold_change): −4.2612 | Gdf6 log2(fold_change): −1.6225 | Gdf11 log2(fold_change): 1.395 | Ghr log2(fold_change): 0.8735 | Gjb3 log2(fold_change): −7.6272 | Gjb5 log2(fold_change): −5.5359 | Gm2a log2(fold_change): −0.2551 | Gm5424 log2(fold_change): −0.8845 | Gm12824 log2(fold_change): −3.0317 | Gm14420 log2(fold_change): −0.5026 | Gmnn log2(fold_change): 0.6461 | Gmpr log2(fold_change): −0.3076 | Gpc1 log2(fold_change): −2.0268 | Gpc4 log2(fold_change): −0.4394 | Gpm6b log2(fold_change): 0.7764 | Gpr39 log2(fold_change): −2.008 | Gpr133 log2(fold_change): −2.4415 | Gpr176 log2(fold_change): −2.941 | Gpr180 log2(fold_change): −0.3841 | Gpx1 log2(fold_change): 0.4381 | Gpx8 log2(fold_change): −0.8413 | Grhpr log2(fold_change): −0.6553 | Gria3 log2(fold_change): −0.798 | Gria4 log2(fold_change): −1.702 | Gstt3 log2(fold_change): 0.5967 | Gyg log2(fold_change): 0.7657 | Gys1 log2(fold_change): −1.8678 | H1fx log2(fold_change): 1.834 | H2afx log2(fold_change): 1.827 | H19 log2(fold_change): 2.0967 | Hadh log2(fold_change): 0.7287 | Hand2 log2(fold_change): 0.6759 | Has2 log2(fold_change): −5.2936 | Hebp2 log2(fold_change): −3.411 | Hhipl1 log2(fold_change): −3.5097 | Hist1h1c log2(fold_change): 1.273 | Hk2 log2(fold_change): −2.0803 | Hmcn1 log2(fold_change): 1.511 | Hmgn3 log2(fold_change): 1.352 | Hmmr log2(fold_change): 0.676 | Hoxb2 log2(fold_change): −0.27 | Hrct1 log2(fold_change): −1.61 | Hs6st2 log2(fold_change): −1.5564 | Hsd11b1 log2(fold_change): −3.3117 | Hspa2 log2(fold_change): 1.246 | Hspb1 log2(fold_change): −0.392 | Hspb2 log2(fold_change): −2.8717 | Hspb7 log2(fold_change): −5.3326 | Hspg2 log2(fold_change): −0.2927 | Htra3 log2(fold_change): −3.7285 | Id3 log2(fold_change): 0.7078 | Igf2 log2(fold_change): −2.0054 | Igf2r log2(fold_change): 1.001 | Igfbp2 log2(fold_change): −2.2293 | Igfbp3 log2(fold_change): −0.769 | Igfbp6 log2(fold_change): 1.061 | Iglon5 log2(fold_change): −1.9642 | Igsf8 log2(fold_change): −0.5384 | Ikbip log2(fold_change): −0.4313 | Il1rap log2(fold_change): −0.6045 | Ildr2 log2(fold_change): 0.4541 | Inpp5a log2(fold_change): −0.5375 | Isoc2b log2(fold_change): −0.7342 | Isyna1 log2(fold_change): 1.463 | Itga1 log2(fold_change): 1.241 | Itga5 log2(fold_change): −2.4936 | Itm2a log2(fold_change): 1.209 | Ivl log2(fold_change): −5.7601 | Jph2 log2(fold_change): −2.9197 | Jub log2(fold_change): −0.4248 | Kank1 log2(fold_change): −0.5094 | Kazald1 log2(fold_change): −0.367 | Kcne4 log2(fold_change): −2.4298 | Kcnmb1 log2(fold_change): −8.5908 | Kctd15 log2(fold_change): −3.5649 | Kdm5b log2(fold_change): −0.323 | Kif1a log2(fold_change): −0.812 | Kif2c log2(fold_change): 0.7386 | Kif4 log2(fold_change): 0.605 | Kif11 log2(fold_change): 0.6087 | Kif20b log2(fold_change): 0.7561 | Kif21b log2(fold_change): −0.3239 | Kif22 log2(fold_change): 0.5992 | Kif23 log2(fold_change): 0.887
